Laboratory results as given in paper PMC9764201, “Half-calcified calmodulin promotes basal activity and inactivation of the L-type calcium channel CaV1.2” (The Journal of Biological Chemistry, 2022).

Legend:
[1] = molecular target: fluorescein-labeled CaV1.2 IQ peptide K1662E (rat); experiment: fluorescence polarisation; fluorescein-labeled peptides (100 nM) titrated with Ca2/CaM12’ in 20 mM Tris, pH 7.4, 100 mM KCl, 1 mM MgCl2, 1.0 mM CaCl2
[2] = molecular target: CaV1.2 IQ peptide F1658A (rat); experiment: ITC; 27 °C; Ca2/CaM12’ (0.1 or 0.5 mM, injectant) titrated into IQ peptide (10 or 50 μM, 1.5 ml) in the sample cell; 20 mM Tris, pH 7.4, 100 mM KCl, 1 mM CaCl2; 35 injections of 10 μl
[3] = molecular target: CaV1.2 IQ peptide F1658D (rat); experiment: as above
[4] = molecular target: CaV1.2 IQ peptide I1654A (rat); experiment: as above
[5] = molecular target: CaV1.2 IQ peptide Y1649A (rat); experiment: as above
[6] = molecular target: CaV1.2 IQ peptide Y1657D (rat); experiment: as above

Ca2/CaM12’ (calmodulin mutant D21A/D23A/D25A/E32Q/D57A/D59A/N61A/E68Q with Ca2+ bound at EF3 and EF4) (from UniProt P0DP33 1-149) (natural protein)
Kd [1]: < 0.1 µM
Kd [2]: 0.032 µM
dH [2]: -39.7 kJ/mol
stoichiometry N [2]: 1
Kd [3]: 4 µM
dH [3]: -24.7 kJ/mol
stoichiometry N [3]: 0.8
Kd [4]: 0.06 µM
dH [4]: -38.5 kJ/mol
stoichiometry N [4]: 0.89
Kd [5]: 0.026 µM
dH [5]: -40.6 kJ/mol
stoichiometry N [5]: 0.88
Kd [6]: 8 µM
dH [6]: -23.4 kJ/mol
stoichiometry N [6]: 0.72
